These results are taken from PubChem BioAssay AID2097 (Broad Institute, 2009).

By UniProt entry, the sequences of proteins in these tests, tags left out. Where a name states a change or a piece, a line headed by the entry shows the natural chain unless it says otherwise.
UniProt P49841: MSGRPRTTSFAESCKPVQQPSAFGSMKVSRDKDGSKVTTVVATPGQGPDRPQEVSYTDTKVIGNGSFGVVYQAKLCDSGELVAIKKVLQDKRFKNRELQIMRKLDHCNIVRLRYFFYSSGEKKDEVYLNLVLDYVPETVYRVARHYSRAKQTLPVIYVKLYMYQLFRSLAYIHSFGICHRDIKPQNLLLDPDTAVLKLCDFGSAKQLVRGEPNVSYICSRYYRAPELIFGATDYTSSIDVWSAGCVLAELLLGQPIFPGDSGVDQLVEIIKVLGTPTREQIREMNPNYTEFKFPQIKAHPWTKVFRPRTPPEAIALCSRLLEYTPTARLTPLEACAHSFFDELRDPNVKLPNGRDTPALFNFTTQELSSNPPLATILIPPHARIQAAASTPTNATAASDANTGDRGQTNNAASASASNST

This is a selection; strong and weak results do not stand in their true shares. The source made the active and inactive calls.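 How the source made its calls: active means more than half of replicate wells score below -50%, meaning over 50% inhibition versus plate controls; inconclusive means some replicates but at most half score below -50%; inactive means no replicate scores below -50%.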

The assay addresses Glycogen synthase kinase-3 beta (Homo sapiens) (UniProt P49841). The assay is described as follows: blockers of GSK3B enzyme activity – biochemical, cell-free homogeneous, HTS, primary screen (AID 2097).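 Further: 0% = median DMSO wells and -100% = median GW8510 positive control wells.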 The settings on record: GST-GSK3beta kinase, ADP-Glo luminescence, 60 min; at 10 µM; hits give low values. In general terms: ADP-Glo turns the ADP formed in a reaction into a luminescent signal.
Regarding `CC(=O)Nc1ccc([As](=O)(O)O)c(O)c1`, the activity score (negative = inhibition) was inactive: 0.0465%. In the case of `CC(=O)c1ccc(N2CC2c2ccncc2)cc1` (stereo unspecified) it was inactive: 6.35%; in that of `C[C@@H]1C=CCP(=O)(Oc2ccccc2)O1` (stereo partly specified), inactive: -0.857%; in that of `C[C@H]1OP(=O)(Oc2ccccc2)C[C@@H]2O[C@@H]21` (stereo partly specified), inactive: 0.93%. With `CC(C)(C)C(=O)NC(Sc1ccccc1)C(Cl)(Cl)Cl` (stereo unspecified), the activity score (negative = inhibition) is inactive: 3.39%. Then `CCOc1ccc(C2=NCC(CBr)S2)cc1` (stereo unspecified), with inactive: 0.793%. In the case of `O=P1(Nc2nc3ccc(Cl)cc3s2)COc2ccccc2O1` (stereo unspecified) it was inactive: 5.73%; in that of `c1nnnn1CCn1cnnn1`, inactive: 1.23%; in that of `CC(C)C(=O)NC(Sc1ccccc1)C(Cl)(Cl)Cl` (stereo unspecified), inactive: -0.0191%. In the case of `O=P(Nc1nccs1)(c1ccccc1)c1ccccc1` it was inactive: -2.31%; in that of `Nc1ccc([As](=O)(O)c2ccc([N+](=O)[O-])cc2)cc1`, inactive: -0.68%. In the case of `C(Cc1nn[nH]n1)Cc1nn[nH]n1`, the activity score (negative = inhibition) is inactive: 1.91%.

In the case of `O=C(OC1CN2CCC1CC2)c1cccc(Cl)c1` (stereo unspecified), the activity score (negative = inhibition) is inactive: -1.58%. For `O=[N+]([O-])c1ccc(O)c(/C=N/Nc2ccc([N+](=O)[O-])cc2[N+](=O)[O-])c1`, the activity score (negative = inhibition) is inactive: 3.19%. Then `CC(=O)NC(SC(=S)N(C)C)C(Cl)(Cl)Cl` (stereo unspecified), with inactive: 2.33%; and `O=[N+]([O-])c1ncn(CCn2cnc([N+](=O)[O-])n2)n1`, with inactive: 0.048%.

Take `O=[As](O)(c1ccccc1)c1ccc(O)cc1`: the activity score (negative = inhibition) was inactive: -0.888%.

For `C[C@H]1OP(=O)(Oc2ccccc2)[C@H](O)[C@H](O)[C@H]1N=[N+]=[N-]` (stereo partly specified), the activity score (negative = inhibition) is inactive: -1.14%. In the case of `O=P(Nc1nc2ccccc2s1)(c1ccccc1)c1ccccc1` it was inactive: 0.271%. For the compound `O=P(Nc1ccccn1)(c1ccc(Br)cc1)c1ccc(Br)cc1`, the activity score (negative = inhibition) was inactive: -7.2%.

Consider `CN(C)C1(CNC(=O)c2ccc(Cl)c(S(N)(=O)=O)c2)CCCCC1`, for which the activity score (negative = inhibition) is inactive: -2.24%.

Regarding `O=P1(Nc2ccc(Br)cn2)COc2ccccc2OC1`, the activity score (negative = inhibition) is inactive: -2.32%. In the case of `Cc1ccc(OCC(=O)OC2CN3CCC2CC3)cc1` (stereo unspecified) it was inactive: -0.786%; in that of `O=[As](O)(c1cccs1)c1cccs1`, inactive: -4.3%; in that of `Nc1cccc([As](=O)(O)c2ccccc2)c1`, inactive: -0.644%. In the case of `O=P1(Nc2ncccn2)COc2ccccc2OC1` it was inactive: 5.31%; in that of `O=C(/C=C/c1ccccc1)OC1CN2CCC1CC2` (stereo unspecified), inactive: 1.36%. Then `CN(C)C1(CNC(=O)c2ccc(S(C)(=O)=O)cc2)CCCCC1`, with inactive: -3.27%. For the compound `CC1CCC(C(C)C)C(OP(=O)(Nc2ccccn2)c2ccccc2)C1` (stereo unspecified), the activity score (negative = inhibition) was inactive: -0.802%. Then `Cc1ccc(C(=O)OC2CN3CCC2CC3)cc1` (stereo unspecified), with inactive: 2.06%; and `Cc1nn(-c2ccccc2)c2c1P(=O)(N1CCOCC1)N(C)C(c1ccccc1)=N2` (stereo unspecified), with inactive: 0.202%. Then `CC1(CBr)Cn2c(nc3ccccc3c2=O)S1` (stereo unspecified), with inactive: 3.04%; and `O=[As](O)(c1ccccc1Br)c1ccccc1Br`, with inactive: 0.184%; and `CC(C)/C=N\N=C(\N)N[N+](=O)[O-]`, with inactive: 2.73%. In the case of `CN(C(=O)Cc1ccc(Cl)c(Cl)c1)[C@@H]1CCCC[C@H]1N1CCCC1` it was inactive: 0.369%. As for `COc1ccccc1CNC(=O)COC(=O)C(O)(c1ccccc1)c1ccccc1`, the activity score (negative = inhibition) is inactive: 4.05%. In the case of `CC(C)(C)C(=O)NC(Sc1ncccn1)C(Cl)(Cl)Cl` (stereo unspecified) it was inactive: 0.693%; in that of `Clc1n[nH]nc1-c1nn[nH][15n]1`, inactive: 0.622%; in that of `CN(CCCl)Cc1cc(Cl)c(NC2=NCCN2)c(Cl)c1`, inactive: -0.154%. Then `CCOP(=O)(Nc1ccc(C)cn1)OCC`, with inactive: -3.04%; and `CCOP(=O)(NC(=NC(C)c1ccccc1)NC(C)c1ccccc1)OCC` (stereo unspecified), with inactive: 3.48%; and `O=P1(Nc2ccccn2)COc2ccccc2OC1`, with inactive: 1.05%.

In the case of `CCC1=CC2Cc3nc4ccc(Cl)cc4c(N)c3C(C1)C2` (stereo unspecified), the activity score (negative = inhibition) was inactive: -1.6%. Then `CCOP(=O)(Nc1cccc2ccccc12)OCC`, with inactive: -0.815%.

Regarding `COc1cc(C2NCCC3(OCCO3)C2(C)C)cc(OC)c1OC` (stereo unspecified), the activity score (negative = inhibition) is inactive: 3.72%.

For `CCCOP(=S)(Nc1nc(N)cc(=O)[nH]1)OCCC`, the activity score (negative = inhibition) is inactive: 0.225%. Then `Cc1ccc(NCCc2c([N+](=O)[O-])cc([N+](=O)[O-])cc2[N+](=O)[O-])cc1`, with inactive: 1.65%. `Nc1cccc2c([As](=O)(O)O)cccc12`: the activity score (negative = inhibition) is inactive: -1.08%. Then `O=[As](O)(c1cccc(O)c1)c1cccc(O)c1`, with inactive: -1.63%; and `Cc1cccc(OCC(=O)OC2CN3CCC2CC3)c1` (stereo unspecified), with inactive: -2.15%.

Consider `CS(=O)(=O)c1ccc(Cl)c(NC(=O)COC(=O)C(O)(c2ccccc2)c2ccccc2)c1`, for which the activity score (negative = inhibition) is inactive: -1.76%.
